The list is not random: actives were taken first. Their share in the collection is about 2.1%.
miR122 inh: miR-122 Renilla sensor signal increase in Huh7, primary screen, miR-122 inhibitor project, cell-based, single point, plate reader. Huh7 miR-122 Renilla luciferase sensor, 48 h; neutral wells = 0, positive control = 100. activation (reporter increase), % at 12.5 µM. AID 602342, 2012. 340,000 compounds, 0.3% hits;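 active means mean replicate activation score at least 90 and every replicate individually at or above 90; inconclusive means only one of the two criteria met; inactive means neither criterion met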;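 further: higher luciferase means less miR-122 activity so hits act as miR-122 inhibitors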
MITF act: activators of MITF-driven TRPM1 promoter reporter, primary screen, cell-based, SK-MEL-5, luciferase, single point. AID 588334, 2011. 300,000 compounds, 0.75% hits. activation, % at 12.5 µM. SK-MEL-5 TRPM1-promoter luciferase, 24 h; % of positive control, neutral wells = 0;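 active means mean activation of at least 80% with every replicate also reaching 80%; inconclusive means mean reaches 80% but some replicate falls short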
TRPM1 prom inh: inhibitors of MITF-dependent TRPM1 promoter reporter, primary screen, cell-based, SK-MEL-5, single point, luciferase. inhibition, % at 12.5 µM. SK-MEL-5 TRPM1 promoter luciferase, 24 h. 330,000 compounds, 0.83% hits;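 active means mean inhibition across replicates of 60% or more, whatever share of single replicates reaches that level; inconclusive means some that reach 60%, reason not given; inactive means mean inhibition across replicates below 60%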
Yeast UUG start-1: modulators of yeast start codon fidelity, primary screen, whole organism, S. cerevisiae, single point, plate reader | AID 602363, 2012 | S. cerevisiae UUG-firefly luciferase reporter, luminescence/redox ratio | activity score, % at 18.7 µM | hit rate 0.13% among 350,000;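 active = replicate mean at a twofold rise or more, about +100% in these data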;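 also: firefly luciferase made from a UUG start codon reports start codon fidelity; reporter light over untreated wells divided by growth signal over untreated wells; some hits fall short of that in this replicate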
Wnt act: Wnt/beta-catenin pathway activators, primary screen, cell-based, plate reader, single point; Wnt/beta-catenin reporter cell assay, activator; activation, % at 9.35 µM; 300,000 compounds, 1.2% hits; AID 743398, 2014; in the data active means activation above about 30%, passing the limit was not always enough; inconclusive means no clear call, values can overlap the other calls
PGC1a acetyl inh: inhibitors of PGC1a acetylation signal, primary screen, cell-based, U2OS, AlphaScreen, inhibitor mode | AlphaScreen anti-acetyl-lysine; with virally co-expressed GCN5 acetyltransferase | inhibition, % at 15.6 µM | 350,000 compounds, 0.17% hits | AID 651687, 2012;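 active means every replicate shows inhibition of at least 40%; inconclusive means mean inhibition at least 40% but some replicate below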
Yeast UUG start-2: enhancers of UUG start codon usage in yeast, dose response, S. cerevisiae, UUG firefly luciferase, cherry-pick, set 2. 540 tested, under 10 active. luminescence, 4 h; 100% means double the DMSO signal. shares compounds with Yeast UUG start-1. activation, % at 38 µM;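 active means signal increase whose fitted curve reaches an absolute level of 40 at a concentration under 10 µM; inactive means activity opposite to the expected increase, or the rest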
Numbers stand for hits; i = inactive; ? = inconclusive; nt = no result; ! = a repeat was not active.

SMILES	miR122 inh	MITF act	TRPM1 prom inh	Yeast UUG start-1	Wnt act	PGC1a acetyl inh	Yeast UUG start-2
Cc1cc(=O)[nH]c(=O)n1Cc1ccccc1	i	i	i	196	i	i	i
CCOc1ccccc1C(=O)NCC(=O)OCC(=O)NCCc1ccc(S(N)(=O)=O)cc1	i	nt	i	555	nt	i	i
NS(=O)(=O)c1ccc(CCNC(=O)c2ccccc2OCc2ccc(F)cc2)cc1	nt	i	i	i	i	nt	nt
CS(=O)(=O)Nc1ccc2c(c1)[C@H]1C[C@@H](CC(=O)NCc3ccc(Oc4ccccc4)cc3)O[C@@H](CO)[C@H]1O2	i	nt	nt	i	nt	i	nt
C[C@H](CO)N1C[C@H](C)[C@H](CN(C)Cc2ccc(C(=O)O)cc2)Oc2cc(C#CCC3CCCC3)ccc2S1(=O)=O	i	nt	nt	182	nt	i	i
C[C@@H]1CN([C@H](C)CO)S(=O)(=O)c2ccc(C#CCC3CCCC3)cc2O[C@H]1CN(C)C(=O)CN(C)C	i	nt	nt	112	nt	i	i
CNC[C@H]1Oc2cc(C#CC3CCCCC3)ccc2S(=O)(=O)N([C@H](C)CO)C[C@@H]1C	i	nt	nt	161	nt	i	i
C[C@H]1CN([C@@H](C)CO)S(=O)(=O)c2ccc(C#CCC3CCCC3)cc2O[C@@H]1CN(C)C(=O)CN(C)C	i	nt	nt	i	nt	i	nt
C[C@@H]1CN([C@@H](C)CO)S(=O)(=O)c2ccc(C#CCC3CCCC3)cc2O[C@@H]1CN(C)Cc1ccc(C(=O)O)cc1	i	nt	nt	i	nt	i	nt
C[C@H](CO)N1C[C@H](C)[C@@H](CN(C)C(=O)c2cnccn2)Oc2cc(C#CCC3CCCC3)ccc2S1(=O)=O	i	nt	nt	121!	i	i	i
CNC[C@@H]1Oc2cc(C#CC3CCCCC3)ccc2S(=O)(=O)N([C@@H](C)CO)C[C@@H]1C	i	nt	nt	i	nt	i	nt
C[C@@H]1CN([C@H](C)CO)S(=O)(=O)c2ccc(C#CCC3CCCC3)cc2O[C@@H]1CN(C)C(=O)c1cnccn1	i	nt	nt	i	nt	i	nt
CCCNC(=O)C[C@@H]1CC[C@@H]2[C@H](COc3ccc(NC(=O)c4cccs4)cc3C(=O)N2C)O1	i	nt	nt	i	nt	i	nt
C[C@H](CO)N1C[C@H](C)[C@H](CN(C)CC2CCCCC2)Oc2c(NS(=O)(=O)c3ccccc3)cccc2C1=O	i	nt	nt	i	nt	nt	nt
CCCC(=O)N1C[C@@H]2[C@H](c3ccccc31)[C@H](CO)N2C(=O)CC1CC1	i	nt	nt	i	nt	i	nt
C[C@H](CO)N1C[C@H](C)[C@H](CN(C)C(=O)c2cccnc2)Oc2ncc(-c3ccc(C#N)cc3)cc2C1=O	nt	nt	nt	154	nt	i	i
C[C@H]1CN([C@@H](C)CO)C(=O)c2cc(-c3ccc(C#N)cc3)cnc2O[C@H]1CN(C)C(=O)c1cccnc1	nt	nt	nt	i	nt	i	nt
C[C@@H]1CN([C@@H](C)CO)C(=O)c2cc(-c3cccc(F)c3)cnc2O[C@@H]1CN(C)C(=O)c1cccc(F)c1	i	nt	nt	active	nt	i	i
C[C@@H]1CN([C@@H](C)CO)C(=O)c2ccccc2-c2ccccc2CO[C@H]1CN(C)C(=O)c1ccncc1	nt	nt	nt	nt	nt	i	nt
Cc1ccccc1S(=O)(=O)N1CC(=O)N2[C@@H](CO)[C@H](c3ccc(C#Cc4ccccc4)cc3)[C@@H]2C1	nt	nt	nt	nt	nt	i	nt
CCc1cccc2c(C(=O)C(F)(F)F)cn(CC(=O)NCC3CCCO3)c12 (stereo unspecified)	nt	i	i	nt	nt	nt	i
CC(C)C(=O)c1cn(CC(=O)NCC2CCCO2)c2ccccc12 (stereo unspecified)	i	i	i	449	i	i	i
O=C(C[C@H]1CC[C@@H]2[C@H](COC[C@H](O)CN2Cc2nccs2)O1)NCc1ccc(-c2ccccc2)cc1	i	nt	nt	i	nt	i	nt
COc1ccc(OC)c(C(C(=O)NCc2ccco2)N(C(=O)Cn2nnc3ccccc32)C(C)C)c1 (stereo unspecified)	i	nt	i	196	i	i	i
COc1ccc(OC)c(C(C(=O)NCc2ccco2)N(C(=O)Cn2nnc3ccccc32)C2CC2)c1 (stereo unspecified)	i	i	i	nt	nt	i	nt
SMILES	miR122 inh	MITF act	TRPM1 prom inh	Yeast UUG start-1	Wnt act	PGC1a acetyl inh	Yeast UUG start-2
CCCNC(=O)C[C@@H]1CC[C@@H]2[C@H](COC[C@@H](O)CN2Cc2cccc(F)c2)O1	i	nt	nt	107	nt	i	i
CCCNC(=O)C[C@@H]1CC[C@H]2[C@@H](COC[C@H](O)CN2Cc2cccc(F)c2)O1	i	nt	nt	i	nt	i	nt
Cc1cc(C)c(-n2nnnc2SCC(=O)c2cccs2)c(C)c1	?	i	i	active	i	i	i
Cn1nnnc1SCC(=O)c1cccs1	i	i	i	i	i	i	nt
CCCNC(=O)N(C)C[C@H]1Oc2ncc(C#CC3CC3)cc2C(=O)N([C@H](C)CO)C[C@H]1C	i	nt	nt	i	nt	i	nt
CCOc1ccc(C=NC23CN4CN(CN(C4)C2)C3)cc1	i	nt	i	462	nt	i	i
O=C(CNC(=O)c1ccccc1F)N/N=C/c1ccco1	nt	i	i	i	i	nt	nt
O=C(CNC(=O)c1ccccc1Br)N/N=C/c1ccco1	i	i	i	308	i	nt	i
COc1ccc(CCNS(=O)(=O)c2ccc(OC)c(OC)c2)cc1OC	i	i	i	i	i	i	nt
COc1ccc(CCNS(=O)(=O)c2ccccc2)cc1OC	i	i	i	705	nt	nt	i
COc1ccc(CCNS(=O)(=O)c2ccc(Cl)cc2)cc1OC	i	nt	nt	i	i	nt	i
COc1ccc(CCNS(=O)(=O)c2ccc(Br)cc2)cc1OC	i	i	i	i	i	i	nt
COc1ccc(N/C(N)=N/c2nc(CSc3nnc(C)s3)cc(=O)[nH]2)cc1	i	i	i	172	i	i	i
Cc1ccc(N/C(N)=N/c2nc(CSc3nnc(C)s3)cc(=O)[nH]2)c(C)c1	nt	i	i	nt	i	i	nt
C[C@H](O)C#Cc1ccc2c(c1)O[C@H](CN(C)Cc1cncnc1)[C@@H](C)CN([C@@H](C)CO)S2(=O)=O	i	nt	nt	i	nt	i	nt
C/C=C/c1ccc2c(c1)O[C@@H](CN(C)Cc1cccc(F)c1)[C@@H](C)CN([C@H](C)CO)S2(=O)=O	nt	nt	nt	105	nt	i	i
COCC#Cc1ccc2c(c1)O[C@@H](CN(C)Cc1cccnc1)[C@@H](C)CN([C@@H](C)CO)S2(=O)=O	i	nt	nt	154	nt	i	i
COCC#Cc1ccc2c(c1)O[C@H](CN(C)Cc1cccnc1)[C@@H](C)CN([C@@H](C)CO)S2(=O)=O	i	nt	nt	i	nt	i	nt
CC(C)C#Cc1ccc2c(c1)O[C@@H](CN(C)Cc1ccccn1)[C@@H](C)CN([C@H](C)CO)S2(=O)=O	i	nt	nt	61	nt	i	i

Screening results from PubChem BioAssay.
